# Yeast mating assay 2: variants of the scFv Ab-95

Values reported by Engelhart et al. 2022, doi:10.1038/s41597-022-01779-4 (FLAb copy).

Binding partner: SARS-CoV-2 spike HR2 peptide, sequence PDVDLGDISGINAS.

Parent scFv Ab-95: VH joined to VL by three GGGGS repeats. Changes lie in the light chain CDRs alone.
VH: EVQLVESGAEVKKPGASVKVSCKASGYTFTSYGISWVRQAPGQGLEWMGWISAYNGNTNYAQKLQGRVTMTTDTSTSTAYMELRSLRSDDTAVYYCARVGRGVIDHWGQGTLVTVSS
VL: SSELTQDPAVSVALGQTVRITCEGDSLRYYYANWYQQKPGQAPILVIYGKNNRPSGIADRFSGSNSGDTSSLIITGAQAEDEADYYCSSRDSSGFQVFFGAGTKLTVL

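In library AAYL52, one, two or three CDR residues were substituted; doubles and triples were drawn at random. Affinity was read by AlphaSeq, a pooled yeast mating assay with surface-displayed partners. The frequency of each diploid, read from paired DNA barcodes, reflects how well the two displayed proteins bind. The ratio of observed to expected reads was calibrated, replicate by replicate, on BCL2-family standards whose Kd was known from biolayer interferometry. Each pool was mated in three replicate cultures.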

Changes read parent residue, position, new residue, counted from the first residue of the VL shown. Values are log10 of the apparent Kd in nM; lower means stronger binding. An entry "nd" has no value in the source: the pair was not observed among the diploids in that replicate. This suggests poor binding but is not conclusive.

changes,"replicates, log10 nM"
E23N/S89Q/F95N,2.77 2.70 nd
R28V/Y31I/R90E,nd nd nd
E23V/K50N/N51M,4.14 3.17 nd
D25W/Y30C/S92I,3.26 3.96 nd
Y31D/G49Y/F98Q,3.95 3.79 4.72
Y29F/G94T/F98S,2.35 2.38 2.14
D25I/R53G/S93C,nd 3.54 3.19
Y31L/R90T/F95M,3.02 3.41 2.16
S26D/S92W/G94L,4.55 3.24 nd
N52A/S92A/V97W,3.37 3.29 2.64
Y31C/G94C/Q96F,nd nd nd
D25M/S93W/F98T,2.83 3.20 4.22
G24P/P54F,nd 5.44 4.37
A32L/N52S/G94A,nd nd 4.03
A32E/G49T/Q96T,3.56 nd nd
S55T/R90C/F95Y,3.02 2.80 3.67
E23P/N51K/R53N,3.54 3.38 3.91
G24D/S26P/A32E,nd 3.64 nd
S92N/S93G/G94N,2.29 2.56 2.60
N33P/R90D/D91K,5.62 nd nd
L27K/Y29M/S92R,3.88 4.60 nd
G24V/G49I/F95M,2.22 2.75 2.58
Y29C/N52Y/Q96C,3.07 2.68 3.17
N33E/S55K/S89I,nd nd nd
G24N/F95H,2.85 4.00 nd
S26G/L27C/S93N,nd nd nd
S26P/S55K/S88E,4.14 2.55 2.60
G24D/Y30I/S93T,nd nd nd
A32P/G49I/D91W,3.56 nd 3.95
L27M/D91F/S93Q,2.89 2.85 nd
G24F/D91V/F95S,nd nd nd
G49S/P54Y/F98E,nd nd nd
L27K/Y31A/S93A,2.70 3.77 2.80
A32K/N51K/G94E,5.53 nd nd
S55V/D91V/F98L,3.00 3.29 2.77

For reference, 2 entries of the list once more:

changes,"replicates, log10 nM"
E23P/N51K/R53N,3.54 3.38 3.91
N33P/R90D/D91K,5.62 nd nd

As a blank, each scFv also met three strains without target: over library AAYL52, 28% of these pairings were detected, typically at 3.91 and seldom below 2.90. For reference, the parent read 2.31 as the reference entry and 2.25 as a member of this library.